Experimental findings from BindingDB's records for PubMed 2138666 (Department of Veterans Affairs Medical Center, 1990) are described below.

Protein sequences, listed by entry. Tags and fused reporters are not part of them.
UniProt P61169, whole entry: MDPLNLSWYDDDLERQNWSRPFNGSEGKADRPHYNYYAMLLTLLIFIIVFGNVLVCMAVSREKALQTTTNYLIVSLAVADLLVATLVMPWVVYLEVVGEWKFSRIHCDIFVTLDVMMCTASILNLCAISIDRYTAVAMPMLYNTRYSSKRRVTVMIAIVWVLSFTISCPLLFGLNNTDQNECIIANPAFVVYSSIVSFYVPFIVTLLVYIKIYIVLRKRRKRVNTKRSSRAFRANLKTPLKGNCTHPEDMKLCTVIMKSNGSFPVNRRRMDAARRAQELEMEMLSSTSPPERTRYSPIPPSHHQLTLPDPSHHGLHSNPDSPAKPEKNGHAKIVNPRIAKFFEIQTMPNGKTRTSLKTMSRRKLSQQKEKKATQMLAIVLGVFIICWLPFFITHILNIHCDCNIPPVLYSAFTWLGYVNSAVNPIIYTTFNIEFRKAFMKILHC

The target in this assay is D(2) dopamine receptor (Rattus norvegicus, UniProt P61169).

For the compound `CN1CCN2c3ccccc3Cc3ccccc3[C@H]2C1` [MIANSERIN (+)], the inhibitory constant (Ki) (as a rule, the dissociation constant of the complex between target and ligand, obtained from inhibition or displacement) came out at 3.2 µM.
